Tests used:
human primary T cells = assay: IL15-dependent expansion: T cell numbers and CD4/CD8 ratio by flow cytometry; assay type: cell-based; conditions: Acetazolamide treatment, 10 days
Description: To test IL15-dependent expansion, beads were removed on day 10 and cells were washed. IL15 expressing or control T cells were then cultured in fresh culture media alone or in the presence of Acetazolamide or exogenous IL15 (1 ng/ml) for 10 days. The T cell numbers (Table 30) and the change in CD4/CD8 ratio (Table 31) were determined by flow cytometry.

T cells = assay: CD40L expression of CA2 regulated CD40L constructs in T cells by FACS (dose response, time course); assay type: cell-based; conditions: CD4+ T cells with OT-001990, Acetazolamide 0.05 μM, 24 hours
Text: CD40L constructs regulated by Carbonic anhydrase DDs were generated and cloned into lentiviral vectors. Purified T cells were thawed and cultured with aCD3 aCD28 Dynabeads (in the ratio of 3 beads to 1 T cell).
The constructs were transduced in T cells the next day. […]

CC(=O)Nc1nnc(S(N)(=O)=O)s1 [Acetazolamide, reference compound]
CD4/CD8 ratio (human primary T cells): decreased | CD40L MFI (T cells): 123
